These results are taken from patent US11072634B2, “Inhibitors of transglutaminases” (Zedira GmbH, priority 2016, dated 2021).

Chains of the proteins cited; added tags and fusions are not shown.
UniProt P21980, whole entry: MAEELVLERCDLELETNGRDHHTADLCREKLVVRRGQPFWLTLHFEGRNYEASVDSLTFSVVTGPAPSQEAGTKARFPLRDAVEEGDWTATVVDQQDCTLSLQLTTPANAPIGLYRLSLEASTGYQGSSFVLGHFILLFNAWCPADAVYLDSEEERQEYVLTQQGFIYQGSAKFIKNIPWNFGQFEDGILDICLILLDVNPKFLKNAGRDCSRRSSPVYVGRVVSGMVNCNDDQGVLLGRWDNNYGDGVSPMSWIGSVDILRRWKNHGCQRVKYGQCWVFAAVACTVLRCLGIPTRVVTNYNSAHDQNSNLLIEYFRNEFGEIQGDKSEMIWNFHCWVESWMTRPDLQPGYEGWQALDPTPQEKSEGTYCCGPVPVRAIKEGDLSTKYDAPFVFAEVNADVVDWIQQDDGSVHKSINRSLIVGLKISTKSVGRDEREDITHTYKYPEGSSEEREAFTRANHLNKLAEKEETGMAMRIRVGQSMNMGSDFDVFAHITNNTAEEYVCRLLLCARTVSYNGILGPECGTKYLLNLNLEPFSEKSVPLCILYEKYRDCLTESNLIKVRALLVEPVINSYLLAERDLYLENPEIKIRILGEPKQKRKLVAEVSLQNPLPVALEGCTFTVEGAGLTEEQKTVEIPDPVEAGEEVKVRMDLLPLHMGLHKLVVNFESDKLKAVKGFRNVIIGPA

The subject of series [1] is mouse neuroblastoma cell line N1E-115. Nature of the series: Neurite outgrowth assay. On the procedure:
The irreversible-reversible inhibitor pair Z007 and E57 was further compared using a neurite outgrowth assay (Merck, #NS220) with mouse neuroblastoma cell line N1E-115. Laminin-coated Millicell® 12-well inserts were placed in a 12 well plate containing 1.2 mL differentiation medium (Merck, NS002). Then, 300 μL of a 10^6 N1E-115-cells/mL suspension were added. Differentiation medium contained 0 μM, 75 μM and 150 μM Nocadazole as positive controls, and 100 μM, 250 μM and 500 μM of inhibitors 2007 or E57. Nocodazole interferes with the polymerization of microtubules resulting in an antineoplastic effect.
For neurite extension the plates were incubated at 37° C. for 48 hours. Then the insert was transferred to a new 12 well plate with 1,200 μL of PBS per plate and finally to a plate with 400 μL of −20° C. methanol per well, where the cells were fixed for 20 min at room temperature. After rinsing with PBS, the insert was stained with Neurite Staining Solution for 20 min. After rinsing the inserts in PBS cell bodies were carefully swabbed off and inserts were washed again in PBS. Inserts were then transferred into 15 mL tubes and 100 μL Neurite Stain Extraction Buffer were added to the top of the inserts. After 5 min incubation at ambient temperature, tubes were centrifuged for 1 min at 1,200 rpm. Finally 75 μL extraction buffer were removed and the absorbance was determined at 590 nm.

In series [2] the test system is Huh7 (human liver carcinoma cell line). The experiment in a line: Metabolic activity, EZ4U-Assay. The note with it: highest concentration 1 mM. On the procedure: (§1) The following cell lines are used for determination of cytotoxicity: • CaCo2 (human colon carcinoma cell line) • Huh7 (human liver carcinoma cell line).
(§2) Cells are cultivated in DMEM/10% FCS at 37° C. and 5% CO2 in a 96 well plate with an initial seeding density of 2×10^4 cells/well.
(§3) Transglutaminase inhibitors are added to the cells with final concentrations from 0.1 μM to 1 mM one hour after seeding. The different inhibitor dilutions are prepared in DMSO, resulting in a final concentration of 1% (v/v) DMSO in every well (2 μl inhibitor in 200 μl cell culture medium). Cycloheximide (2.5 μg/ml) and Camptothecin (0.2 μg/ml) are used as control compounds. All measurements are performed in triplicates.
(§4) Determination of metabolic activity using EZ4U-Assay (Biomedica, Cat. No. BI-5000).
(§5) After 48 h of incubation with inhibitors or controls, the tetrazolium substrate is added to the cells. Substrate turnover by the cells is measured over two hours at 450 nm (using 630 nm was reference wavelength).

In series [3] the test system is CaCo2 (human colon carcinoma cell line). Nature of the series: Metabolic activity, EZ4U-Assay. The note with it: highest concentration 1 mM. Here is the method:
as §1, §2, §3, §4, §5

For series [4], the target named is recombinant human tissue transglutaminase (rhTG2) (Homo sapiens, UniProt P21980). Nature of the series: Inhibition of rec. human tissue transglutaminase (fluorescence, Abz-APE(CAD-DNP)QEA-OH). The note with it: read-out: IC50 TG2; Table 2, TG2 inhibitors. Here is the method: Method for Inhibition Studies of Rec. Human Tissue Transglutaminase (rhTG2)
250 μg lyophilized His-tagged recombinant human tissue transglutaminase (His6-rhTG2, Zedira product 1022) is reconstituted in H2O (volume depends on original volume before lyophilization) resulting in a buffer containing 10 mM Tris-HCl, 150 mM NaCl, 1 mM EDTA, 5 mM DTT, 189 mg/ml maltodextrin, pH=8.1. The rhTG2 stock solution is diluted in buffer (50 mM Tris-HCl, 7.5 mM CaCl2, 150 mM NaCl, pH=7.4) to give a working solution of 100 U/ml (based on the amine-incorporation activity measured using T036, described below).
A 10 mM inhibitor stock solution is prepared in DMSO, and from this stock solution a serial 1:2-fold dilution series is prepared, also in DMSO. Each of these initial dilutions is subsequently diluted 1:50-fold with buffer (50 mM Tris-HCl, 7.5 mM CaCl2, 150 mM NaCl, pH=7.4) to yield the final working dilutions containing 2% (v/v) DMSO. […]
600 μl of His6-rhTG2 working solution are added to 11.4 ml assay buffer (50 mM Iris-HCl, 7.5 mM CaCl2, 150 mM NaCl, 5 mM DTI, 13.4 mM glycine methylester, 50 μM Abz-APE(CAD-DNP)QEA-OH, (Zedira product A102; patent No.: EP 1781807B1), pH=7.4). […] Increase in fluorescence is measured using λex=313 nm and λem=418 nm at 37° C. for 20 min. […]
Analysis of enzymatic activity is performed by calculation of the slope of an increase in fluorescence intensity. […]

For series [5], the system named is Huh7 (human liver carcinoma cell line). Nature of the series: Cell Proliferation ELISA, BrdU. To be noted: highest concentration 1 mM. Here is the method:
as §1, §2, §3
(§6) Determination of proliferation using Cell Proliferation ELISA, BrdU (Roche, Cat. No. 11647229001).
(§7) After 24 h of incubation with inhibitors or controls, BrdU is added to the cells. After further incubation for 18 h, the cells are fixed and cellular DNA becomes denatured. A monoclonal antibody (conjugated with peroxidase) raised against BrdU is added to the wells and binds to BrdU which is incorporated into the DNA. Substrate solution is added and absorbance at 450 nm is recorded. Further analysis is performed according to the manufacturer's protocol.
A general note: ELISA stands for enzyme-linked immunosorbent assay.

In series [6] the test system is CaCo2 (human colon carcinoma cell line). Nature of the series: Cell Proliferation ELISA, BrdU. To be noted: highest concentration 1 mM. Here is the method:
as §1, §2, §3, §6, §7

Each structure is given as a SMILES string.

Take `CCC(CC)CNC(=O)Cn1cccc(NC(=O)[C@H](CCC(=O)C(=O)NC)NC(=O)OCc2ccccc2)c1=O`: the “reduction of neurite outgrowth” value in series [1] (N1E-115, 500 μM, 48 hours) turned out to be 18%. In addition, the “neurite outgrowth, dose dependence” value in series [1] (N1E-115, 100, 250 and 500 μM) is listed as “dose dependent, but even milder impact”. In series [2], the “Cytotoxicity concentration (>10% deviation from negative control), EZ4U, Huh-7” value was greater than 1 mM. For the same compound, in series [3], the “Cytotoxicity concentration (>10% deviation from negative control), EZ4U, Caoo2” value was greater than 1 mM. The IC50 in series [4] was found to be 230 nM. The “Cytotoxicity concentration (>10% deviation from negative control), BrdU, Huh-7” value in series [5] is on record as greater than 1 mM. Moreover, in series [6], the “Cytotoxicity concentration (>10% deviation from negative control), BrdU, Caco2” value is on record as greater than 1 mM.

In general, IC50 refers to the concentration that inhibits the measured activity by half.
